Tested on: c-Jun phosphorylation
Experiment: LanthaScreen TR-FRET cell assay for c-Jun phosphorylation in HeLa cells
Assay type: cell-based
Settings: HeLa and A375 formats, tested in parallel

N#Cc1c(NC(=O)c2cccc3ccccc23)sc2c1CCCC2
IC50's for c-Jun phosphorylation in both cellular assay formats: micromolar range
